Assay: Water solubility and aggregation of dyes in water (absorbance spectra)
Settings: in words

With “Sodium 3-[(2Z)-{[(9H-Fluoren-9-yloxy)carbonyl]amino}-2-[(2E)-4-(1,3-dimethyl-4,6-dioxo-2-thioxotetrahydropyrimidin-5(2H)-ylidene)-but-2-enylidene]-1,3-benzothiazol-3(2H)-yl]propane-1-sulfonate [dye 1d]” the water solubility was “significantly improved”.
